IC50 and Ki data for 6 compounds are collected here from ChEMBL document CHEMBL1136239, “Bicyclo[2.2.1]heptanes as novel triple re-uptake inhibitors for the treatment of depression” (Bioorg Med Chem Lett, 2003).

The chains behind the UniProt entries cited, without tags or fusion partners.
UniProt P23975, whole entry: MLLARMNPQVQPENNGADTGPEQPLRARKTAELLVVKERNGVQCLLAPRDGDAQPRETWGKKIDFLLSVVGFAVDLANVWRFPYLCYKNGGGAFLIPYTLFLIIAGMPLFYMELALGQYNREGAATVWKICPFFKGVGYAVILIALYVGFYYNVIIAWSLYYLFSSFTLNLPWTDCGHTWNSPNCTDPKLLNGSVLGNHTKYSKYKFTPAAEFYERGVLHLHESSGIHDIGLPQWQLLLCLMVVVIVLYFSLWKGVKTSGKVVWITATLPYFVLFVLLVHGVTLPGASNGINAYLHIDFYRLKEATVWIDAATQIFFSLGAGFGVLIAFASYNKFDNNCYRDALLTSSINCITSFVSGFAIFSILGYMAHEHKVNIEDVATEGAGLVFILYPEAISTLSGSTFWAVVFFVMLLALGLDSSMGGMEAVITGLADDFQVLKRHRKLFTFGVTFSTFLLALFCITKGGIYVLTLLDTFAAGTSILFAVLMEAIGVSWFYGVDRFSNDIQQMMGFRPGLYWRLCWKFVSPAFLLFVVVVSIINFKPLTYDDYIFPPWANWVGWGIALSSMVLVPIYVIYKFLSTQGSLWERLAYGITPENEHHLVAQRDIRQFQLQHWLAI

In test [1] the target is T1, Sodium-dependent noradrenaline transporter (Homo sapiens, UniProt P23975). In words: In vitro inhibition of [3H]NE re-uptake into synaptosome. The test is classed as functional, tissue-based, Brain.
Test [2] has as its target T1, Sodium-dependent noradrenaline transporter. Briefly: Displacement of [3H]-Nisoxetine from norepinephrine transporter. The essentials:
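Radioligand binding: inhibitory binding constants measured against a known radiolabelled re-uptake inhibitor. Ligands were [3H]citalopram for SERT, [3H]WIN35,428 for DAT and [3H]nisoxetine for NET. Values are means of three experiments; minimum significant ratio < 3.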

On to `CN(C)C[C@@H]1C2CCC(C2)[C@H]1c1ccc2ccccc2c1` (some centres not stated), for which the IC50 in test [1] is 34 nM. Also, the inhibition constant (Ki) in test [2] was determined as 149 nM.

Compound `CN(C)CC1C2CCC(C2)C1c1ccc2ccccc2c1` (configuration not stated) yielded an IC50 in test [1] of 45 nM. The Ki in test [2] turned out to be 111 nM.

As for `CNC[C@H]1C2CCC(C2)[C@@H]1c1ccc2ccccc2c1` (some centres not stated), in test [1], half-maximal inhibition (IC50) was put at 28 nM. This compound yielded a Ki in test [2] of 99 nM.

For `CN(C)C[C@H]1C2CCC(CC2)[C@@H]1c1cccc(Cl)c1`, half-maximal inhibition in test [1] (IC50) was put at 44 nM. In addition, the affinity in test [2], expressed as Ki, was 51 nM.

For the compound `CN(C)C[C@H]1C2CCC(C2)[C@@H]1c1ccc2ccccc2c1` (some centres not stated), the IC50 in test [1] is 25 nM. For the same compound, in test [2], the Ki was 152 nM.

`CNCC1C2CCC(C2)C1c1ccc2ccccc2c1` (configuration not stated) showed an IC50 in test [1] of 45 nM. In addition, in test [2], the Ki was determined as 266 nM.
